In PubChem BioAssay AID624267 (The Scripps Research Institute Molecular Screening Center, 2012) one finds inhibition data, which are given here for 50 molecules.

Chains of the proteins cited; added tags and fusions are not shown.
UniProt O43353, whole entry: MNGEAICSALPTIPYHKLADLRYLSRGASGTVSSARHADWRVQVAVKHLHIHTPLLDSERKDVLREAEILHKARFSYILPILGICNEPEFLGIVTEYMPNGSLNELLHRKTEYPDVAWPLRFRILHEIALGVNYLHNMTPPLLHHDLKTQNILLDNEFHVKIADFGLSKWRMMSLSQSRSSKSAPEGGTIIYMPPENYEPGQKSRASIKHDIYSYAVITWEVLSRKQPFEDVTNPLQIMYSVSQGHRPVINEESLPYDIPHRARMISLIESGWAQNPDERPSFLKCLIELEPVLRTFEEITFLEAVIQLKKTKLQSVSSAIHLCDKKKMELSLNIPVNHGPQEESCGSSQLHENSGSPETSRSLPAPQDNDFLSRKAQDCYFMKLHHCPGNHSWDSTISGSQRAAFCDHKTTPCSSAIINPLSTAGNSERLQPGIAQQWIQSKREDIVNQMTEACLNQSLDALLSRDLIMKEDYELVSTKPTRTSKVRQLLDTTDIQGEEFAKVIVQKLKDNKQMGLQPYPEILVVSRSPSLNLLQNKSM

The entries are a selection whose mix differs from that of the whole data set. Some salts or complexes appear as unconnected parts, following the source record. The source made the active and inactive calls. No stated cut-off is given here; in the data, active means inhibition above about 21%; inactive means the rest.

This test has as its target Receptor-interacting serine/threonine-protein kinase 2 (Homo sapiens) (UniProt O43353). The experiment in a line: NOD2-RIPK2 binding disruptors in cells, primary screen, fluorescence, CHO cells, BLA complementation (AID 624267).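 Further: 0% = vehicle only and 100% = reference blocker.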 Particulars: CHO BLA complementation NOD2-RIPK2, CCF4 ratio; at 4.98 µM; hits give high values.
Turning to `CCOP(C)(=S)SCC(=O)NC(C)(CC)C(=O)O` (stereo not given), the inhibition (as a rule, the change of the read-out against control, counted positive when it falls) is inactive: -7.97%.

`CP(=O)(Nc1ccc(SC(F)(F)F)cc1)Oc1ccc(F)cc1` (stereo not given): the inhibition was inactive: 0.86%.

As to `Cc1c(C(c2ccc3c(c2)OCO3)c2c(C)n(C)n(-c3ccccc3)c2=O)c(=O)n(-c2ccccc2)n1C.O=[N+]([O-])c1cc([N+](=O)[O-])c(O)c([N+](=O)[O-])c1`, the inhibition is inactive: -5.05%.

For the molecule `Cc1cc(-c2cccc3ccccc23)c(C)cn1.O=[N+]([O-])c1cc([N+](=O)[O-])c(O)c([N+](=O)[O-])c1`, the inhibition is inactive: 1.41%.

With `O=[N+]([O-])c1cc([N+](=O)[O-])c(NCC2CCS(=O)(=O)C2)c([N+](=O)[O-])c1` (stereo not given), the inhibition was inactive: 0.04%.

On to `O=[N+]([O-])c1ccc(OP2(=O)COCCO2)cc1` (stereo not given), for which the inhibition was inactive: -8.63%.

`COc1ccc(NP(C)(=O)Oc2ccccc2OC)cc1` (stereo not given): the inhibition is inactive: -1.39%.

Take `CN(C)CCOC(=O)C(O)(c1ccccc1)C1CCCCC1` (stereo not given): the inhibition is inactive: -0.56%.

As to `COc1ccc(OP(C)(=O)Nc2cccc(Br)c2)cc1` (stereo not given), the inhibition is inactive: -6.65%.

With `CCCCCOc1ccc(NP(C)(=O)Oc2ccc(Cl)cc2Cl)cc1` (stereo not given), the inhibition is inactive: -10.3%.

`O=[N+]([O-])c1cc([N+](=O)[O-])c(OC2CCCCC2O)c([N+](=O)[O-])c1` (stereo not given): the inhibition was inactive: -11.9%.

Take `CP(=O)(Nc1ccccc1)Oc1ccc(F)cc1` (stereo not given): the inhibition was inactive: -3.23%.

For `CCN(CC)CCCOC(=O)C(O)(c1ccccc1)C1CCCCC1` (stereo not given), the inhibition was inactive: -1.11%.

With `Cc1c([N+](=O)[O-])cc([N+](=O)[O-])c(Br)c1[N+](=O)[O-]`, the inhibition was inactive: 3.2%.

With `COc1ccc(OP(C)(=O)Nc2ccc(SC(F)(F)F)cc2)cc1` (stereo not given), the inhibition is inactive: 4.92%.

Regarding `CCOC(=O)c1ccc(NP(C)(=O)Oc2ccc(F)cc2)cc1` (stereo not given), the inhibition was inactive: -3.87%.

With `CCN(CC)CCCNc1ccccc1[N+](=O)[O-].O=[N+]([O-])c1cc([N+](=O)[O-])c(O)c([N+](=O)[O-])c1`, the inhibition was inactive: -11.4%.

For `COc1ccc2c(c1O)-c1c(O)c(OC)cc3c1[C@H](C2)[N+](C)(C)CC3.O=[N+]([O-])c1cc([N+](=O)[O-])c([O-])c([N+](=O)[O-])c1[O-]`, the inhibition was inactive: -10.4%.

In the case of `O=C(OCCN1CCN(CCOCc2ccccc2)CC1)C(O)(c1ccccc1)c1ccccc1`, the inhibition was inactive: -7.28%.

As to `O=C(OC1CN2CCC1CC2)c1ccc([N+](=O)[O-])cc1` (stereo not given), the inhibition was inactive: -0.42%.

Take `CC(C)c1ccc(OP(C)(=O)Nc2ccc(SC(F)(F)F)cc2)cc1` (stereo not given): the inhibition was inactive: -7.07%.

For `CP(=O)(Nc1ccccc1F)Oc1ccccc1` (stereo not given), the inhibition is inactive: 8.54%.

As to `O=[N+]([O-])c1cc([N+](=O)[O-])c(Nc2ccc(Cl)cc2)c([N+](=O)[O-])c1`, the inhibition was inactive: 3.82%.

Take `CCc1ccc(OP(C)(=O)O)cc1`: the inhibition is inactive: -2.25%.

For the molecule `COc1ccccc1OP(C)(=O)Nc1ccc(C)cc1C` (stereo not given), the inhibition is inactive: -1.53%.

In the case of `CP(=O)(Nc1ccccn1)Oc1ccccc1` (stereo not given), the inhibition was inactive: 10.8%.

Turning to `Cc1c(NP(C)(=O)Oc2ccc(C(C)C)cc2)c(=O)n(-c2ccccc2)n1C` (stereo not given), the inhibition is inactive: 1.47%.

For the molecule `O=[N+]([O-])c1cc([N+](=O)[O-])c(Nc2ccccn2)c([N+](=O)[O-])c1`, the inhibition is inactive: 14.5%.

Turning to `CN(C)CCOC(=O)C(O)(c1ccccc1)C1CCCC1` (stereo not given), the inhibition is inactive: -17.5%.

Consider `COc1ccc(OP(C)(=O)Nc2ccccn2)cc1` (stereo not given), for which the inhibition was inactive: -13.9%.

On to `COc1ccccc1OP(C)(=O)Nc1ccc(Br)cc1` (stereo not given), for which the inhibition is inactive: 2.84%.

As for `CCCCCCCCCCCCCCCC1C[N+](C)(C)CCOP(C)(=O)O1` (stereo not given), the inhibition is inactive: 14.7%.

`CP(=O)(Nc1ccc(Cl)cc1Cl)Oc1ccccc1` (stereo not given): the inhibition is inactive: -11.7%.

Regarding `CP(=O)(OCCOc1ccccc1)OCCOc1ccccc1`, the inhibition is inactive: -6.93%.

With `COc1ccc(OP(C)(=O)Nc2ccccc2Br)cc1` (stereo not given), the inhibition is inactive: -20.5%.

Turning to `COc1ccccc1OP(C)(=O)Nc1ccc(C)c(C)c1` (stereo not given), the inhibition was inactive: -5.3%.

With `Cc1cc(C)cc(OP(C)(=O)Nc2cccc(C(F)(F)F)c2)c1` (stereo not given), the inhibition is inactive: -1.08%.

Consider `O=C1C(O)=C([N+](=O)[O-])C(=O)C(O)=C1[N+](=O)[O-]`, for which the inhibition is inactive: -4.69%.

Consider `CP(=O)(OC12CC3CC(CC(C3)C1)C2)OC12CC3CC(CC(C3)C1)C2`, for which the inhibition was inactive: -1.09%.

For the molecule `CCOC(=O)c1ccc(NP(C)(=O)Oc2ccc(Cl)cc2)cc1` (stereo not given), the inhibition was inactive: 4.59%.

Take `CN(C)C(=O)c1c([N+](=O)[O-])cc([N+](=O)[O-])cc1[N+](=O)[O-]`: the inhibition is inactive: -21.9%.

`CP(=O)(Nc1ccc(Cl)cc1)Oc1ccc(F)cc1` (stereo not given): the inhibition is inactive: -2.65%.

For `COc1ccccc1OP(C)(=O)Nc1ccccc1Br` (stereo not given), the inhibition was inactive: 4.49%.

`CC(C)(C)c1ccc(OP(C)(=O)O)cc1`: the inhibition was inactive: -18.1%.

As to `CCc1ccc(OP(C)(=O)Nc2cccnc2)cc1` (stereo not given), the inhibition is inactive: -20.5%.

With `CP(=O)(Oc1ccccc1)N1CCOC1=O` (stereo not given), the inhibition was inactive: 14%.

Regarding `O=C(OCCCN1CCCC1)C(O)(c1ccccc1)C1CCCCC1` (stereo not given), the inhibition is inactive: -4.2%.

In the case of `COc1ccccc1OP(C)(=O)Nc1c(C)n(C)n(-c2ccccc2)c1=O` (stereo not given), the inhibition is inactive: -0.88%.

With `COc1ccc(OP(C)(=O)Nc2ccc(Br)cc2)cc1` (stereo not given), the inhibition was inactive: 2.41%.

Turning to `CCN(CC)CC(O)COC(=O)C(O)(c1ccccc1)C1CCCCC1` (stereo not given), the inhibition was inactive: -1.36%.
